Results reported in PMC4885109, “Rapid Discovery and Structure–Activity Relationships of Pyrazolopyrimidines That Potently Suppress Breast Cancer Cell Growth via SRC Kinase Inhibition with Exceptional Selectivity over ABL Kinase” (Journal of Medicinal Chemistry, 2016).

Protein sequences, listed by entry. Tags and fused reporters are not part of them.
UniProt P05177, whole entry: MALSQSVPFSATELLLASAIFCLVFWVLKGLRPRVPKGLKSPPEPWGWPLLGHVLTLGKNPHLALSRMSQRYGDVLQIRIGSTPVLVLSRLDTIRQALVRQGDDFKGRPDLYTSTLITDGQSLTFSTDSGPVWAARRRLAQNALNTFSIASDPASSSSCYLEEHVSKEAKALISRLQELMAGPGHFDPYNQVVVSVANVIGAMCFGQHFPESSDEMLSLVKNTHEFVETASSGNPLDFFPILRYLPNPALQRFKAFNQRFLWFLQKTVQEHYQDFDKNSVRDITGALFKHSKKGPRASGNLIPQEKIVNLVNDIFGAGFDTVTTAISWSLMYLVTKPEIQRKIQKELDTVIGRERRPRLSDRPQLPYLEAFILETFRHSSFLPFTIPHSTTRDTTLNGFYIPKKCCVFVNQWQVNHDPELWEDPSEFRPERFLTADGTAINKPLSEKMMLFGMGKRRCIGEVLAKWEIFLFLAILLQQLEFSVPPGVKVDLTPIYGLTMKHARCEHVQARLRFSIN

Target: CYP1A2 (Homo sapiens, UniProt P05177)
Settings: 10 μM

## O=c1cc(-c2ccccc2)oc2c1ccc1ccccc12 [Naphthoflavone, reference compound]
  inhibition of CYP1A2: 99.82%
